By UniProt entry, the sequences of proteins in these tests, tags left out.
UniProt P27338, whole entry: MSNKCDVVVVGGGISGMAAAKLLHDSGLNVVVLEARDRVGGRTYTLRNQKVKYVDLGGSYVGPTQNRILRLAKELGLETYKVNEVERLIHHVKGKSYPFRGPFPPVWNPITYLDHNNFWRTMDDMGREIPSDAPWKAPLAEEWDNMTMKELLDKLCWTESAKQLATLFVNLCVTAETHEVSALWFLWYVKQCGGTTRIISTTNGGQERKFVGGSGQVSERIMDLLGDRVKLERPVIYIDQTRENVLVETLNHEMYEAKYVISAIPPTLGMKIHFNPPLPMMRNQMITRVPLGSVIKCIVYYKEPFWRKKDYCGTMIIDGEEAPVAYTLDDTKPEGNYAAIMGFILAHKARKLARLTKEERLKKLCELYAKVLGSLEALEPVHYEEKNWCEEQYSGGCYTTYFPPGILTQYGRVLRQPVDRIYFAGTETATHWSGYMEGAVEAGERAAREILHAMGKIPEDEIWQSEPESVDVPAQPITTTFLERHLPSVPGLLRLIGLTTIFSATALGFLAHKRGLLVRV

According to publication PMC7027018 (BMC Chemistry, 2020):

Target: T1, hMAO-B (Homo sapiens, UniProt P27338)
T1 construct: purchased Sigma-Aldrich; host or cells: insect cells (BTI-TN-5B14), recombinant baculovirus
Test: hMAO-B inhibitory activity, Amplex Red continuous fluorometric assay
Format: biochemical
Settings: IC50 (MAO-A)/IC50 (MAO-B)
Experimental: The synthesized derivatives were screened for the hMAO-A and hMAO-B inhibitory activities by using an extremely sensitive continuous fluorometric assay containing Amplex Red (10-acetyl-3, 7-dihydroxyphenoxazine) reagent. The enzymatic H2O2 was measured with and without extracts or standards.
Unless otherwise noted, the analytical grade chemicals required for synthesis and antioxidant activity procured from Sigma Aldrich, Merck, Hi-media Laboratories. The analytical assessment of the synthesized derivatives for hMAO inhibition was measured by their effects on the generation of hydrogen peroxide (H2O2) by p-tyramine (a general substrate for both MAO isoforms), utilizing the Amplex Red MAO assay kit (Sigma USA) and microsomal MAO enzymes extracted by insect cells (BTI-TN-5B14) expressed on recombinant baculovirus containing cDNA probes for MAO isoforms (Sigma-Aldrich USA) were used as source for the two microsomal MAO isoforms. […] Melting points were recorded on Sonar melting point apparatus in open capillary tubes. The nuclear magnetic resonance (NMR) spectra 1H NMR and ^13C NMR spectra were determined in DMSO and deuterated CDCl3 respectively on a spectrometer (Model: Bruker Avance II 400 NMR). […]

- Selectivity index: 0.312
SMILES: O=C(/C=C/C=C/c1ccc2c(c1)OCO2)N1CCOCC1 [Compound 9]
